This is an account of results in patent publication US20260167693A1 (ANGELES THERAPEUTICS, published 2026).

In assay [1] the target is T1, CD19-ECD-GGSG-NLuc-AcV5 (human).
T1 construct: also called CD19-GGSG-NLuc-AcV5; Flag-CD19-GGSG-NLuc-AcV5
T1 chain: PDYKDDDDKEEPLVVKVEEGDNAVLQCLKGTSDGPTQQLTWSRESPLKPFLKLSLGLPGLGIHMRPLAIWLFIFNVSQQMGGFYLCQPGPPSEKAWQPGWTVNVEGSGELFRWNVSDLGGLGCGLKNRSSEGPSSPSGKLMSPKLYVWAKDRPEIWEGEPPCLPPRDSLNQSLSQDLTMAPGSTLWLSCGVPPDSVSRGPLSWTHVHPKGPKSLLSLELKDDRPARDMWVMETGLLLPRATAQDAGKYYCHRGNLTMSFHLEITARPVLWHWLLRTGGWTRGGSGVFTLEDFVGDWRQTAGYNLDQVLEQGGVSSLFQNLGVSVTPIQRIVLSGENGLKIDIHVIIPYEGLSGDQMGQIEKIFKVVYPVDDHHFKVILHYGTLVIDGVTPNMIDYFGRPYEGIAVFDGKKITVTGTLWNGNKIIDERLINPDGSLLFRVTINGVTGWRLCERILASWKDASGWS
Nature of the assay: NLuc binding assay, SIR on Jurkat-NFAT-Luc cells; parental Jurkats 1515.

Assay [2] has as its target T1, CD19-ECD-GGSG-NLuc-AcV5. Nature of the assay: NLuc binding assay, SIR on primary human T cells.

B1: CD8SP-MPL-161-vL-V5-[hTCRb-S57C-opt1]-F-P2A-MPL-161-vH-Myc-[hTCRa-T48C-opt1]-F-F2A-PAC (040315-U02)[SEQ ID NO:1112] (other)
TCR beta: DIQMTQSSSSFSVSLGDRVTITCMASEDIYIRLAWYQQKPGNAPRLLISAATSLETGVPSRFSGSGSGKDYTLSITSLQTEDVGTYYCQQYWSSPWTFGGGTKLEINGKPIPNPLLGLDSTGSGEDLKNVFPPEVAVFEPSEAEISHTQKATLVCLATGFYPDHVELSWWVNGKEVHSGVCTDPQPLKEQPALNDSRYCLSSRLRVSATFWQNPRNHFRCQVQFYGLSENDEWTQDRAKPVTQIVSAEAWGRADCGFTSESYQQGVLSATILYEILLGKATLYAVLVSALVLMAMVKRKDSRG
TCR alpha: DVQLQESGPGLVKPSQSLSLTCTVTGYSITSDYTWNWIRQFPGNKLEWMGYITYSGSTSYNPSLKSRNSITRDTSKNQFFLQLNSVTTEDTATYYCARLGRRYTMDYWGQGTSVTVSSEQKLISEEDGSGPDPAVYQLRDSKSSDKSVCLFTDFDSQTNVSQSKDSDVYITDKCVLDMRSMDFKSNSAVAWSNKSDFACANAFNNSIIPEDTFFPSPESSCDVKLVEKSFETDTNLNFQNLSVIGFRILLLKVAGFNLLMTLRLWSS
notes: MPL SIR used as control; Polyprotein PRT 3347
Consider B1, for which the NLuc value in the assay with CD19-ECD-GGSG-NLuc-AcV5 [1] came out at 179.

B2: CD8SP-V5-[hTCRb-KACIAH]-F-P2A-CD8SP-FMC63-vL-Gly-Ser-Linker-FMC63-vH-Myc-[hTCRa-CSDVP]-F-F2A-PAC (082815-G07)[SEQ ID NO:1620] (other)
TCR beta: GKPIPNPLLGLDSTGSGEDLKNVFPPEVAVFEPSKAEIAHTQKATLVCLATGFYPDHVELSWWVNGKEVHSGVCTDPQPLKEQPALNDSRYCLSSRLRVSATFWQNPRNHFRCQVQFYGLSENDEWTQDRAKPVTQIVSAEAWGRADCGITSASYHQGVLSATILYEILLGKATLYAVLVSALVLMAMVKRKDSRG
TCR alpha: DIQMTQTTSSLSASLGDRVTISCRASQDISKYLNWYQQKPDGTVKLLIYHTSRLHSGVPSRFSGSGSGTDYSLTISNLEQEDIATYFCQQGNTLPYTFGGGTKLEITGGGGSGGGGSGGGGSEVKLQESGPGLVAPSQSLSVTCTVSGVSLPDYGVSWIRQPPRKGLEWLGVIWGSETTYYNSALKSRLTIIKDNSKSQVFLKMNSLQTDDTAIYYCAKHYYYGGSYAMDYWGQGTSVTVSSEQKLISEEDGSGIQNPDPAVYQLRDSKSSDKSVCLFTDFDSQTNVSQSKDSDVYITDKCVLDMRSMDFKSNSAVAWSNKSDFACANAFNNSIIPEDTFFPSSDVPCDVKLVEKSFETDTNLNFQNLSVIGFRILLLKVAGFNLLMTLRLWSS
notes: scFv on TCRa, empty TCRb; Polyprotein PRT 3855
Turning to B2, the “mean NLuc value” in the assay with CD19-ECD-GGSG-NLuc-AcV5 [2] was 29300. Also, the NLuc value with CD19-ECD-GGSG-NLuc-AcV5 [1] was determined as 27600.

B3: CD8SP-V5-[hTCRb-KACIAH]-F-P2A-CD8SP-CD19Bu12-vL-Gly-Ser-Linker-CD19Bu12-vH-Myc-[hTCRa-CSDVP]-F-F2A-PAC (082815-E05)[SEQ ID NO:1622] (other)
TCR beta: B2 TCR beta
TCR alpha: EIVLTQSPATLSLSPGERATLSCSASSSVSYMHWYQQKPGQAPRLLIYDTSKLASGIPARFSGSGSGTDFTLTISSLEPEDVAVYYCFQGSVYPFTFGQGTKLEIKRGGGGSGGGGSGGGGSQVQLQESGPGLVKPSQTLSLTCTVSGGSISTSGMGVGWIRQHPGKGLEWIGHIWWDDDKRYNPALKSRVTISVDTSKNQFSLKLSSVTAADTAVYYCARMELWSYYFDYWGQGTLVTVSSEQKLISEEDGSGIQNPDPAVYQLRDSKSSDKSVCLFTDFDSQTNVSQSKDSDVYITDKCVLDMRSMDFKSNSAVAWSNKSDFACANAFNNSIIPEDTFFPSSDVPCDVKLVEKSFETDTNLNFQNLSVIGFRILLLKVAGFNLLMTLRLWSS
notes: Polyprotein PRT 3857
Turning to B3, the “mean NLuc value” with CD19-ECD-GGSG-NLuc-AcV5 [2] came out at 4670. Besides, the NLuc value with CD19-ECD-GGSG-NLuc-AcV5 [1] is 10300.
